Some compounds may have been tested in ways that are not shown here.
Experiments:
[1] = molecular target: T1, PARP-1 enzyme (Homo sapiens, UniProt P09874); assay: In vitro filtration assay for PARP-1 inhibitory activity; conditions: [32P]-NAD, histones, nicked DNA
[2] = molecular target: T1, PARP-1 enzyme; assay: In vitro scintillation proximity assay (SPA) for PARP-1 inhibitory activity; conditions: [3H]-NAD+, biotinylated histones, nicked DNA
[3] = molecular target: TANK-2 enzyme (Homo sapiens, UniProt Q9H2K2); assay: In vitro scintillation proximity assay (SPA) for TANK-2 inhibitory activity; conditions: auto-poly(ADP-ribosyl)ation, [3H]-NAD+; 96-well results if available, otherwise 384-well
Experimental: In Vitro Scintillation Proximity Assay (SPA) for TANK-2 Inhibitory Activity
Compounds of the present invention were tested in an in vitro assay based on SPA technology with Ni Flash plates (96 or 384 well).
In principle, the assay relies upon SPA technology for the detection of auto-poly(ADP-ribosyl)ation of TANK-2 protein using [^3H]-nicotinamide adenine dinucleotide ([^3H]-NAD^+) as ADP-ribosyl donor.
A stock solution of [^3H]-NAD^+/NAD was made by adding 64.6 μl of [^3H]-NAD^+ (0.1 mCi/ml, supplier: Perkin Elmer) and 46.7 μl NAD-stock (10.7 mM, stored at −20° C., supplier Roche) to 1888.7 μl assay buffer (60 mM Tris/HCl, pH 7.4; 0.9 mM DTT; 6 mM MgCl2). The TANK-2 enzyme was produced as described in EP1238063. 60 μl of assay buffer, together with 1 μl of compound in DMSO, 20 μl of [^3H]-NAD^+/NAD and 20 μl of TANK-2 enzyme (final concentration 6 μg/ml) was added per well into a 96-well Ni-coated flash plate (Perkin Elmer). After incubation of the mixture for 120 min. at room temperature, the reaction was terminated by adding 60 μl of stopsolution (42.6 mg NAD in 6 ml H2O). […] Values were expressed as counts per minute (cpm). […] For each sample, the amount of cpm was expressed as a percentage of the mean cpm value of the controls. […] Herein the effects of test compounds are expressed as pIC50 (the negative log value of the IC50-value). […]

Amino acid sequences for entries named in this document (tags omitted).
UniProt P09874, whole entry: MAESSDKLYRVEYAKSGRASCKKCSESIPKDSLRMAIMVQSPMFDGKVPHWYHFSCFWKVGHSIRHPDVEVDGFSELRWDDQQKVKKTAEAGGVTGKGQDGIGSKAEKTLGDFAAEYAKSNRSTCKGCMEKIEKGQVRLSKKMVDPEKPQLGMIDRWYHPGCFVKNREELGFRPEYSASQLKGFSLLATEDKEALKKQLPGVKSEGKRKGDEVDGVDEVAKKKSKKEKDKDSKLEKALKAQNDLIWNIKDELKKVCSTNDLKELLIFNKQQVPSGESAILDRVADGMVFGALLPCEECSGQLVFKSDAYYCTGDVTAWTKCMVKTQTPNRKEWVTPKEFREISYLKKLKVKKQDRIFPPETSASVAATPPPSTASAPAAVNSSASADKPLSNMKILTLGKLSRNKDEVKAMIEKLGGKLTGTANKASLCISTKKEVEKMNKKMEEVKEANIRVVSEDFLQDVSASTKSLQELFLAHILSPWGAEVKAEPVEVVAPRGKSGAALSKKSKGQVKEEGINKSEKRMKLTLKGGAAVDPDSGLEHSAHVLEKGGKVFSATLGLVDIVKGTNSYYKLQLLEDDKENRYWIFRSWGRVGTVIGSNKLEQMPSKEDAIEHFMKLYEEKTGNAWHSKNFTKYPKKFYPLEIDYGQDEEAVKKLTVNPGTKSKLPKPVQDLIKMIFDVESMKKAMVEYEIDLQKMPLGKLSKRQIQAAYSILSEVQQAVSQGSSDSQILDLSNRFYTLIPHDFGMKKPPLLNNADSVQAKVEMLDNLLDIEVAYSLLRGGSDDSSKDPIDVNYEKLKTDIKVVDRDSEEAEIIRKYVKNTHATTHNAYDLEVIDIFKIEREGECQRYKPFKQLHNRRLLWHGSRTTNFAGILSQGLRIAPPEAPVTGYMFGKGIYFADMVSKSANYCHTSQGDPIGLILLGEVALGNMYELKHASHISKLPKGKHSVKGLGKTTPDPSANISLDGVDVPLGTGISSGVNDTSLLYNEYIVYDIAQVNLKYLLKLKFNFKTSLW
UniProt Q9H2K2, whole entry: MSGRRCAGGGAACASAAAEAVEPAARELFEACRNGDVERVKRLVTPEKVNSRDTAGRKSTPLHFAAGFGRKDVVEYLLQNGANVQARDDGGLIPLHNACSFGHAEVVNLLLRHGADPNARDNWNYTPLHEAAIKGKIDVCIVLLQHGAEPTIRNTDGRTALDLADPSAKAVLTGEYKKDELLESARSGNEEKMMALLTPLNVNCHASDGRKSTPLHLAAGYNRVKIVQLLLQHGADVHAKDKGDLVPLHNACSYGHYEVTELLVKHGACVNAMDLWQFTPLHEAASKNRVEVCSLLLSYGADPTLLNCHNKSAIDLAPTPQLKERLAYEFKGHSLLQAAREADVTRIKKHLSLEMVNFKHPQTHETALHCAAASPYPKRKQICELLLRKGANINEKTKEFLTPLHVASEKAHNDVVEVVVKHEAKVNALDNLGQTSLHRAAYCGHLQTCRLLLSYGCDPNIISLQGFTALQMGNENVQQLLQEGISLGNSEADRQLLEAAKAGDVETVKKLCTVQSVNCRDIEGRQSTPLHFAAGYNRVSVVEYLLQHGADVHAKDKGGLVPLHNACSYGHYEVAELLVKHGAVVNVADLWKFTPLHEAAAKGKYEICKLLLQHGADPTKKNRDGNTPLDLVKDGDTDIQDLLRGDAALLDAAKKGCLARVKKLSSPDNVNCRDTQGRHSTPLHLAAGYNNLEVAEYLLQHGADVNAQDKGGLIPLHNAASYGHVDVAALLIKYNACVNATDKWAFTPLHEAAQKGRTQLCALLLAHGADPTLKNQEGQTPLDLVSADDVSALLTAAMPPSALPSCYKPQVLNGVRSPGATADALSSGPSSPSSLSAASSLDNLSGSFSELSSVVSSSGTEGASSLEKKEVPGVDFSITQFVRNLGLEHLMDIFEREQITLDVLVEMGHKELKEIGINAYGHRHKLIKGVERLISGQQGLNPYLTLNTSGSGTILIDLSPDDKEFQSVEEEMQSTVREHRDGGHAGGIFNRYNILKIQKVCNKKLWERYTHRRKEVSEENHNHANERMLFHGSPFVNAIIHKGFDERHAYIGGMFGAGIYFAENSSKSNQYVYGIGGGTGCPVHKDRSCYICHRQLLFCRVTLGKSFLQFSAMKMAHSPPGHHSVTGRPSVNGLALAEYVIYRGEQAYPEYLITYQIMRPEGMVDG

SMILES: O=c1[nH]c(=O)n(CCCN2CCC(n3c(=O)[nH]c4cc(Cl)ccc43)CC2)c2ccccc12
- in vitro filter assay PARP-1 pIC50 [1]: 5.792
- in vitro SPA assay PARP-1 pIC50 [2]: 6.848
- in vitro SPA assay TANK-2 pIC50 [3]: 5.247

— patent US9255080B2, “Quinazolinedione derivatives as PARP inhibitors” (Janssen Pharmaceutica NV, priority 2004, dated 2016)
